Like-named read-outs stand apart in the source and are kept apart here.
Legend:
patients with PPF = details: cited from earlier work
patients with IPF = details: cited from earlier work; for Benefit on FVC vs PBO: Phase 3 IPF; for Progression-free survival: patients with IPF
[1] = Example 7: effect of single and multiple ascending doses of Compound B on systolic blood pressure; details: single ascending dose
Text: The compound sodium (R)-1-(4′-(3-methyl-4-(((1-phenylethoxy)carbonyl)amino)isoxazol-5-yl)-[1,1′-biphenyl]-4-yl)cyclopropane-1-carboxylate (hereafter referred as to “Compound B”) is an LPA1 antagonist having the structure shown below:
and is described in U.S. Patent Application Publication No. 2010/0311799. Single ascending dose of Compound B caused a drop in blood pressure starting ~1.25 hr post dose (FIG. 5).

Row | SMILES | Annual rate of decline in FVC vs placebo (patients with PPF; 52 weeks) | Progression of lung fibrosis vs placebo (patients with PPF; 52 weeks) | Tolerability (patients with PPF) | Benefit on FVC vs PBO (patients with IPF; 52 weeks) | Progression-free survival (patients with IPF) | Effect on blood pressure [1] | Benefit on FVC vs PBO (patients with IPF; 72 weeks)
1 | COC(=O)c1ccc2c(c1)NC(=O)/C2=C(\Nc1ccc(N(C)C(=O)CN2CCN(C)CC2)cc1)c1ccccc1 | lower annual rate of decline in forced vital capacity | slower progression of lung fibrosis than those who received placebo | many patients are unable to tolerate nintedanib due to gastrointestinal side effects | demonstrated benefits on FVC | modest effects on progression-free survival |  | 
2 | Cc1noc(-c2ccc(-c3ccc(C4(C(=O)O)CC4)cc3)cc2)c1NC(=O)O[C@H](C)c1ccccc1 |  |  |  |  |  | drop in blood pressure | 
3 | Cc1ccc(=O)n(-c2ccccc2)c1 |  |  |  |  | modest effects on progression-free survival |  | demonstrated benefits on FVC

— patent US20260382583A1, “LPA1 ANTAGONISTS FOR TREATING INTERSTITIAL LUNG DISEASE” (published 2026)
